Only a part is listed here, and it is no random draw. Records with an inconclusive call do not appear. The source made the active and inactive calls. Unless noted, calls come from the whole dose curve; as a rule, active = well fitted curve in the direction sought with a large enough effect in the repeat runs; inconclusive = weak or mixed curves; inactive = no such curve, though single readings can be large; an effect the other way counts as inactive or inconclusive.
Legend:
[1] = qHTS assay to identify small molecule antagonists of the peroxisome proliferator-activated receptor delta (PPARd) signaling pathway - cell viability counter screen (AID 743213); note: % is set by controls: 0 for no effect and ±100 for the full control effect; nearly all actives have a fitted effect of over 50% in size
In short: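 Same-well viability: cells pre-incubated 5 h, dosed with compound plus 300 nM L165041, kept 17 h at 37 C, FRET substrate 2 h RT, then CellTiter-Glo 30 min RT and luminescence.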

Chains of the proteins cited; added tags and fusions are not shown. Lines headed by an entry give the natural chain unless they say otherwise; changes in a name come on top.
UniProt Q03181: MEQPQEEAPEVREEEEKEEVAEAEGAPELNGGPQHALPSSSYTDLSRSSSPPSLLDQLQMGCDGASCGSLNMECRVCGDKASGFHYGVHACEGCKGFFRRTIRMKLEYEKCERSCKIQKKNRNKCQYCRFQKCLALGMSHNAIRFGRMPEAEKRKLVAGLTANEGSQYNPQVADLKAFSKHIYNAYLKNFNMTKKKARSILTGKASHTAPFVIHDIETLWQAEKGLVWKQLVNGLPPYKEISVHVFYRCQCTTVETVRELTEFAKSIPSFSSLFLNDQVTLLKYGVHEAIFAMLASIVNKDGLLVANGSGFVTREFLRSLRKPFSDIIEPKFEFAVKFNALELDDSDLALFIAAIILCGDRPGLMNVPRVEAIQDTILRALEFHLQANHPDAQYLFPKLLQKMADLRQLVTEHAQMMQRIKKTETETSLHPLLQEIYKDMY
UniProt Q96RI1: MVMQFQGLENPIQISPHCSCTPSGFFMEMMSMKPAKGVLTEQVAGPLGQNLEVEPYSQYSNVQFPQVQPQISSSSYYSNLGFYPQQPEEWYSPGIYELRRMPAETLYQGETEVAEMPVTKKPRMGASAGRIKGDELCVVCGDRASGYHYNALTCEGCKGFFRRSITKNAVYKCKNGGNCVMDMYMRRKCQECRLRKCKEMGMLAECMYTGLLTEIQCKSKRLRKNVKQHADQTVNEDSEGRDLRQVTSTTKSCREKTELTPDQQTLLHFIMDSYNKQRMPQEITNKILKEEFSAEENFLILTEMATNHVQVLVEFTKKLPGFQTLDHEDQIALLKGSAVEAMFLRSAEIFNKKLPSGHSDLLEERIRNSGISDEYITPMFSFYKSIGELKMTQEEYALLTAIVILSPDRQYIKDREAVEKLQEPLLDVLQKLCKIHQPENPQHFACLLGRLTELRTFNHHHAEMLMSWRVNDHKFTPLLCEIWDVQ
UniProt P19793: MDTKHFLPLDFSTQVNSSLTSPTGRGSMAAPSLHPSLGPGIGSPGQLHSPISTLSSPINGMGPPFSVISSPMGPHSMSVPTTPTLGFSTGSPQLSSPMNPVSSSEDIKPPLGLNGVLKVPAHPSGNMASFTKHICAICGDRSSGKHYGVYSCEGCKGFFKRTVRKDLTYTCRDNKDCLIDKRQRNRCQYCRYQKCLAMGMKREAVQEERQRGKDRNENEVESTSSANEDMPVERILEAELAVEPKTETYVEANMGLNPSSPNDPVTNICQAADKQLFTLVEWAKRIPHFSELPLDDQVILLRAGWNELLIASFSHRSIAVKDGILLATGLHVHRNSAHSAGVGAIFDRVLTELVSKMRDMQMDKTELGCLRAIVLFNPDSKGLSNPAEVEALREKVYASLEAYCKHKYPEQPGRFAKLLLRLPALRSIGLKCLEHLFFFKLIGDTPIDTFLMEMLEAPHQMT

[2] = target: Peroxisome proliferator-activated receptor delta (Homo sapiens) (UniProt Q03181); assay: qHTS assay to identify small molecule antagonists of the peroxisome proliferator-activated receptor delta (PPARd) signaling pathway (AID 743215; active = well fitted inhibition curve with a large enough effect in the signal ratio in the repeat runs, not every such curve was filed as active; the % refers to the signal ratio;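 note: cells stimulated with agonist L165041 at 300 nM final during compound exposure; % is set by controls: 0 for no effect and ±100 for the full control effect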); details: HEK293H PPARd-UAS-bla, beta-lactamase FRET ratio, antagonist, 17 h; at 62 µM (top of the series)
In short: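 HEK293H UAS-bla, PPARd; agonist L165041 300 nM final with cpd in DMSO; 37 C 17 h; FRET substrate, RT 2 h; fluorescence intensity.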

[3] = target: Bile acid receptor (Homo sapiens) (UniProt Q96RI1); assay: qHTS assay to identify small molecule antagonists of the farnesoid-X-receptor (FXR) signaling pathway (AID 743217; active = well fitted inhibition curve with a large enough effect in the signal ratio in the repeat runs, not every such curve was filed as active; the % refers to the signal ratio; note: % is set by controls: 0 for no effect and ±100 for the full control effect); details: HEK293T FXR-UAS-bla, beta-lactamase ratio, CDCA-stimulated, 16 h; at 62.6 µM (top of the series) unless noted
In short: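 GeneBLAzer FXR-UAS-bla HEK 293T, CDCA-stimulated (50 uM final). Compound treatment 16 h, 37 °C. Detection: beta-lactamase cleavage of B/G FRET substrate, fluorescence.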

[4] = qHTS assay to identify small molecule agonists of the farnesoid-X-receptor (FXR) signaling pathway - cell viability counter screen (AID 743218); note: % is set by controls: 0 for no effect and ±100 for the full control effect; nearly all actives have a fitted effect of over 45% in size
In short: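 Parallel cytotoxicity test: compound-treated (16 h, 37 C) HEK 293T FXR-bla reporter cells were lysed with CellTiter-Glo and luminescence recorded.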

[5] = target: Bile acid receptor (Homo sapiens) (UniProt Q96RI1); assay: qHTS assay to identify small molecule agonists of the farnesoid-X-receptor (FXR) signaling pathway (AID 743220; active = well fitted activation curve with a large enough effect in the signal ratio in the repeat runs, not every such curve was filed as active; the % refers to the signal ratio; note: % is set by controls: 0 for no effect and ±100 for the full control effect); details: HEK293T FXR-UAS-bla, beta-lactamase FRET ratio, 16 h
[6] = qHTS assay to identify small molecule antagonists of the farnesoid-X-receptor (FXR) signaling pathway - cell viability counter screen (AID 743221; active = well fitted cell-killing curve with a large enough effect in the repeat runs, not every such curve was filed as active; note: % is set by controls: 0 for no effect and ±100 for the full control effect; nearly all actives have a fitted effect of over 50% in size)
[7] = qHTS assay to identify small molecule antagonists of the vitamin D receptor (VDR) signaling pathway - cell viability counter screen (AID 743225); note: % is set by controls: 0 for no effect and ±100 for the full control effect; nearly all actives have a fitted effect of over 50% in size
In short: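 Cells (VDR-UAS-bla HEK 293T) are plated, rested 4 h at 37C, dosed with compound and 3 nM final 1-alpha,25-dihydroxy vitamin D3, and incubated 16 h. Viability is taken from CellTiter-Glo luminescence in the reporter wells.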

[8] = qHTS assay to identify small molecule agonists of the NFkB signaling pathway - cell viability counter screen (AID 1159515; calls by dose curve; note: % is set by controls: 0 for no effect and ±100 for the full control effect; nearly all actives have a fitted effect of over 55% in size); details: NFkB-bla ME-180 viability, CellTiter-Glo luminescence, 5 h; at 61 µM (top of the series) unless noted
In short: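 Using the same wells as the NFkB reporter read, ME-180 NFkB-bla cells given compounds for 5 hr were assessed for viability via CellTiter-Glo, with luminescence taken after a 30 min room-temperature incubation.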

[9] = qHTS assay to identify small molecule agonists of the endoplasmic reticulum stress response signaling pathway (AID 1159516; active = well fitted activation curve with a large enough effect in the signal ratio in the repeat runs, not every such curve was filed as active; the % refers to the signal ratio; note: % is set by controls: 0 for no effect and ±100 for the full control effect); details: ESRE-bla HeLa, ER stress beta-lactamase reporter, 5 h; at 61 µM (top of the series) unless noted
In short: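 An ESRE-bla HeLa cell assay: compounds were pin-transferred from DMSO onto overnight-plated cells and left 5 hr at 37 C. Substrate was then loaded for 2 hr at room temperature before reading fluorescence at 460 nm and 530 nm.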

[10] = target: Nuclear receptor ROR-gamma (Homo sapiens) (UniProt P51449); assay: qHTS assay to identify small molecule antagonists of the retinoid-related orphan receptor gamma (ROR-gamma) signaling pathway (AID 1159521;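 note: CHO cells with doxycycline inducible ROR-gamma driving an RORE luciferase reporter; top concentration of the series differs between compounds; % is set by controls: 0 for no effect and ±100 for the full control effect; nearly all actives have a fitted effect of over 50% in size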); details: Tet-on RORgamma CHO cells, RORE-luciferase, 16 h; at 92.4 µM (top of the series)
[11] = qHTS assay to identify small molecule agonists of the AP-1 signaling pathway - cell viability counter screen (AID 1159525; calls by dose curve; note: nearly all actives have a fitted effect of over 55% in size); details: ME-180 AP-1-bla cells viability, ATP luminescence, 5 h; at 76.8 µM (top of the series) unless noted
In short: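 ME-180 AP-1-bla, 2500 cells/well, Opti-MEM + 0.5% dialyzed FBS; overnight 37 °C; cpd 15-pt titration, 5 h 37 °C; CellTiter-Glo 30 min RT; luminescence read; normalised to TOAB and DMSO controls.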

[12] = qHTS assay to identify small molecule agonists of the AP-1 signaling pathway (AID 1159526; calls by dose curve; note: % is set by controls: 0 for no effect and ±100 for the full control effect); details: ME-180 (cervical carcinoma) AP-1-bla reporter, beta-lactamase FRET ratio, 5 h; at 76.8 µM (top of the series) unless noted
[13] = target: Retinoic acid receptor RXR-alpha (Homo sapiens) (UniProt P19793); assay: qHTS assay to identify small molecule agonists of the RXR signaling pathway (AID 1159527; calls by dose curve; note: % is set by controls: 0 for no effect and ±100 for the full control effect; nearly all actives have a fitted effect of over 35% in size); details: HEK293T RXRa-UAS-bla, beta-lactamase ratio, 16 h; at 76.8 µM (top of the series)
[14] = qHTS assay to identify small molecule agonists of the RXR signaling pathway - cell viability counter screen (AID 1159529)
In short: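 Cell viability is measured by CellTiter-Glo luminescence, 30 min at room temperature, in wells already read for beta-lactamase. Engineered HEK 293T cells (RXR-alpha-UAS-bla) are dosed 16 hr at 37 C. Tetraoctyl ammonium bromide serves as positive control.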

[15] = qHTS assay to identify small molecule antagonists of the retinoid acid receptor (RAR) signaling pathway - cell viability counter screen (AID 1159551); details: C3RL4 cells viability, ATP luminescence (CellTiter-Glo), 6 h; at 92.4 µM (top of the series) unless noted; note: % is set by controls: 0 for no effect and ±100 for the full control effect; nearly all actives have a fitted effect of over 35% in size
In short: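 Retinol-stimulated (1 uM final) C3RL4 cells, compound 6 h, 37 C; readout CellTiter-Glo luminescence (ATP) after 30 min RT incubation.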

[16] = qHTS assay to identify small molecule agonists of the retinoic acid receptor (RAR) signaling pathway (AID 1159553); details: C3RL4 RARE luciferase reporter, agonist, 6 h; at 73.3 µM (top of the series) unless noted; note: % is set by controls: 0 for no effect and ±100 for the full control effect
In short: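 Reporter readout comes from luciferase under RARE control in C3RL4 cells; compound exposure lasts 6 hr at 37 C in 5% CO2, and luminescence is recorded following a 30 min room-temperature incubation with reagent.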

O=[p+]1oc2ccccc2c2ccccc21 (configuration not stated)
inactive: Potency [1] | ratio activity, negative = inhibition [2] 13.5% | activity change, negative = inhibition [3] 1.03% | Potency [4] | activation ([5]; at 62.6 µM (top of the series)) -0.114% | Potency [6] | Potency [7] | activity, negative = cytotoxic [8] -7.68% | activation [9] -3.16% | activity change, negative = inhibition [10] 5.94% | viability change, negative = cytotoxic [11] 1.07% | activation [12] -3.61% | activation [13] 4.38% | Potency [14] | activity change, negative = cytotoxicity [15] 4.78%

O=[P+](Oc1ccccc1)Oc1ccccc1
inactive: Potency [1] | ratio activity, negative = inhibition [2] 1.3% | Potency [4] | Potency [6] | Potency [7] | activity, negative = cytotoxic [8] -2.39% | activation [9] -0.549% | activity change, negative = inhibition [10] -7.03% | viability change, negative = cytotoxic [11] 2.72% | activation [12] 6.32% | Potency [14] | activity change, negative = cytotoxicity [15] 0.638% | activation [16] -0.713%

COC(=O)Cl
inactive: activity change, negative = inhibition [3] -2.16% | activation ([5]; at 62.6 µM (top of the series)) -0.264% | Potency [6] | Potency [7] | activity, negative = cytotoxic [8] 9.52% | activation [9] 0.391% | viability change, negative = cytotoxic [11] -0.0173% | activation [12] 0.633% | activation [13] 5.12% | Potency [14] | activity change, negative = cytotoxicity [15] -0.643% | activation [16] 0.506%

COP(=S)(Cl)OC
inactive: Potency [1] | activity change, negative = inhibition [3] 5.46% [at 81.1 µM] | Potency [4] | activation ([5]; at 81.1 µM (top of the series)) 2.49% | Potency [6] | activity, negative = cytotoxic [8] -4.2% [at 78.8 µM] | activation [9] 1.47% [at 78.8 µM] | activity change, negative = inhibition [10] -12.5% | viability change, negative = cytotoxic [11] -0.0699% | Potency [14] | activity change, negative = cytotoxicity [15] -4.55% | activation [16] -2.66% [at 94.8 µM]

Reference: PubChem BioAssay (Tox21)
